Test system: Peptostreptococcus intermedius
Test: agar-dilution MIC
Assay type: cell-based
Procedure: The MIC values were determined by the agar-dilution method, and are recorded in Table 15, which follows.

Question: What does the source list for A41030 factor C?
Answer: MIC (Peptostreptococcus intermedius 1264, Table 14): 0.5 µg/mL; MIC (Ps. intermedius 1524, Table 15): 0.5 µg/mL

— US4604239A, “Antibiotics” (Eli Lilly and Company, priority 1985, dated 1986)
